# Laboratory results published in IntAct's records for PubMed 23549287.
# B1: DNA polymerase III subunit alpha (Escherichia coli (strain K12)), P10443 (parent)
# chain: MSEPRFVHLRVHSDYSMIDGLAKTAPLVKKAAALGMPALAITDFTNLCGLVKFYGAGHGAGIKPIVGADFNVQCDLLGDELTHLTVLAANNTGYQNLTLLISKAYQRGYGAAGPIIDRDWLIELNEGLILLSGGRMGDVGRSLLRGNSALVDECVAFYEEHFPDRYFLELIRTGRPDEESYLHAAVELAEARGLPVVATNDVRFIDSSDFDAHEIRVAIHDGFTLDDPKRPRNYSPQQYMRSEEEMCELFADIPEALANTVEIAKRCNVTVRLGEYFLPQFPTGDMSTEDYLVKRAKEGLEERLAFLFPDEEERLKRRPEYDERLETELQVINQMGFPGYFLIVMEFIQWSKDNGVPVGPGRGSGAGSLVAYALKITDLDPLEFDLLFERFLNPERVSMPDFDVDFCMEKRDQVIEHVADMYGRDAVSQIITFGTMAAKAVIRDVGRVLGHPYGFVDRISKLIPPDPGMTLAKAFEAEPQLPEIYEADEEVKALIDMARKLEGVTRNAGKHAGGVVIAPTKITDFAPLYCDEEGKHPVTQFDKSDVEYAGLVKFDFLGLRTLTIINWALEMINKRRAKNGEPPLDIAAIPLDDKKSFDMLQRSETTAVFQLESRGMKDLIKRLQPDCFEDMIALVALFRPGPLQSGMVDNFIDRKHGREEISYPDVQWQHESLKPVLEPTYGIILYQEQVMQIAQVLSGYTLGGADMLRRAMGKKKPEEMAKQRSVFAEGAEKNGINAELAMKIFDLVEKFAGYGFNKSHSAAYALVSYQTLWLKAHYPAEFMAAVMTADMDNTEKVVGLVDECWRMGLKILPPDINSGLYHFHVNDDGEIVYGIGAIKGVGEGPIEAIIEARNKGGYFRELFDLCARTDTKKLNRRVLEKLIMSGAFDRLGPHRAALMNSLGDALKAADQHAKAEAIGQADMFGVLAEEPEQIEQSYASCQPWPEQVVLDGERETLGLYLTGHPINQYLKEIERYVGGVRLKDMHPTERGKVITAAGLVVAARVMVTKRGNRIGICTLDDRSGRLEVMLFTDALDKYQQLLEKDRILIVSGQVSFDDFSGGLKMTAREVMDIDEAREKYARGLAISLTDRQIDDQLLNRLRQSLEPHRSGTIPVHLYYQRADARARLRFGATWRVSPSDRLLNDLRGLIGSEQVELEFD
# B2: DNA polymerase III subunit epsilon (Escherichia coli (strain K12)), P03007 (parent)
# chain: MSTAITRQIVLDTETTGMNQIGAHYEGHKIIEIGAVEVVNRRLTGNNFHVYLKPDRLVDPEAFGVHGIADEFLLDKPTFAEVADEFMDYIRGAELVIHNAAFDIGFMDYEFSLLKRDIPKTNTFCKVTDSLAVARKMFPGKRNSLDALCARYEIDNSKRTLHGALLDAQILAEVYLAMTGGQTSMAFAMEGETQQQQGEATIQRIVRQASKLRVVFATDEEIAAHEARLDLVQKKGGSCLWRA
# Variants of: B1
# Conditions: with dpo3b_ecoli dnaN
row,Variant,effect of a mutation on the interaction
1,M923A;F924A,decreasing interaction

# Variants of: B2
# Conditions: with dpo3b_ecoli dnaN
row,Variant,effect of a mutation on the interaction
1,M185A,disrupting interaction
2,F187A,disrupting interaction
